From patent publication US20220024983A1, “BICYCLIC PEPTIDE LIGANDS SPECIFIC FOR IL-17” (BicycleRD Limited, priority 2018, published 2022)
Where two headings read alike, the source gives them in different places. Blank lines part the entries; values can stand above or below the molecule they belong to.

Columns and labels:
[1] = target: T1, IL17A dimer (Mus musculus, UniProt Q62386); assay: IL-17A mouse binding assay; conditions: Table 2, Mouse IL17A dimer
T1 sequence (Q62386 26-158): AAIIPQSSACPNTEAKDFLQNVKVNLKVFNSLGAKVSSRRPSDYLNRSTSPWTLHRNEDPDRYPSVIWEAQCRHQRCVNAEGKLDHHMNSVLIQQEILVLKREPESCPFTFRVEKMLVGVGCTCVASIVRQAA
Protocol: (§1) IL-17A, IL-17E and IL-17F binding was determined using an analogous method to that described in WO 2011/141823.
(§2) Selected peptide ligands of the invention were tested in the above mentioned IL-17A, IL-17E and IL-17F human and mouse binding assays and the results are shown in Tables 1 and 2: […]

[2] = target: T2, hIL17-A / IL17A dimer (Homo sapiens, UniProt Q16552); assay: IL-17A human binding assay
T2 sequence (Q16552 24-155): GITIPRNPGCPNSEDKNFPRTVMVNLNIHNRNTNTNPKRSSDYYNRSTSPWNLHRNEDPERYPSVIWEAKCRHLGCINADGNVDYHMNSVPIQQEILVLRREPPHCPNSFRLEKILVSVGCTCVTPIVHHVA
Protocol: as §1, §2

[3] = target: T3, IL17A dimer (Homo sapiens, UniProt Q16552); assay: Human fluorescence polarisation (FP) competition assay; format: binding
T3 sequence (Q16552 24-155): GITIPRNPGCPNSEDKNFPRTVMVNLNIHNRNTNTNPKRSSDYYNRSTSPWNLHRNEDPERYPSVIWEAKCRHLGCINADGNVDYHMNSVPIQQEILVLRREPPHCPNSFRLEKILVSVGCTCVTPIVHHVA
Protocol: (§3) Affinity determination by fluorescence polarization (FP) competition. Bicycles were screened to determine affinity (Ki) in a fluorescence polarisation assay where in competition with a bicycle labelled with fluorescein (referred to as tracer) with a known affinity for IL-17A. Peptides were diluted to an appropriate concentration in assay buffer (PBS+0.01% Tween20, adjusted to pH7.4 using NaOH (1M)) with a maximum of 1% DMSO, then serially diluted 1 in 2 into assay buffer. Into black 384-well low volume plates, 5 µL of diluted peptide was added to the plate followed by 10 μL of IL-17A (75 nM) then 10 μL tracer added to a final concentration of 1 nM. Measurements were conducted on a BMG PHERAstar FS equipped with an “FP 485 520 520” optic module which excites at 485 nm and detects parallel and perpendicular emission at 520 nm. The PHERAstar FS was set at 25° C. with 200 flashes per well and a positioning delay of 0.1 second, with each well measured at 5 to 10 minute intervals for 60 minutes. The gain used for measurements was determined at the point of experiment on a tracer alone well. Data analysis was performed in Dotmatics where mP values were fit to the Cheng Prusoff equation in order to generate a Ki value.
(§4) Selected peptide ligands of the invention were tested in the above mentioned human FP competition assay and the results are shown in Table 3: […]

[4] = target: T4, human IL-17A dimer (human, UniProt Q16552 24-155); assay: FP competition, competitor: tracer BCY2311
T4 construct: also called hIL17-A
T4 sequence (looked up): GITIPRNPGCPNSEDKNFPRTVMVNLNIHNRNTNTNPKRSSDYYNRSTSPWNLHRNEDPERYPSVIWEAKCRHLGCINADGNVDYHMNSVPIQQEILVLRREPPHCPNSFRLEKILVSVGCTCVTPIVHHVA
Protocol: as §3, §4

[5] = Table 2, Human IL17A dimer, read-out: Kd
[6] = tracer BCY2315, column Ki Mean, read-out: Ki Mean
[7] = tracer BCY2315, read-out: Ki Result
[8] = tracer BCY2311, read-out: Ki Result
[9] = tracer BCY2311, column Ki Mean, read-out: Ki Mean
[10] = Table 2, Human IL17A dimer, column Mean, read-out: Kd Mean

Molecule: A-(SEQ ID NO: 31)-A-[Sar6]-K-[Fl] [BCY2320]
- Kd [1]: > 650 nM
- Kd [2, 5]: 282 nM

Molecule: A-(SEQ ID NO: 29)-A-[Sar6]-K-[Fl] [BCY2318]
- Kd [1]: > 1000 nM
- Kd [2, 5]: 538 nM

Molecule: Ac-(SEQ ID NO: 43) [BCY2252]
- Ki [3, 6]: 1690 nM
- Ki [3, 7]: 1750 ± 882 nM

Molecule: Ac-(SEQ ID NO: 41) [BCY2248]
- Ki [3, 8]: 241 nM
- Ki [3, 7]: 60.6 nM

Molecule: A-(SEQ ID NO: 12)-A [BCY2274]
- Ki [3, 9]: 50.8 nM
- Ki [3, 8]: 51.5 ± 15.4 nM
- Ki [3, 7]: 35.8 nM

Molecule: Ac-(SEQ ID NO: 40) [BCY2246]
- Ki [3, 6]: 546 nM
- Ki [3, 7]: 550 ± 130 nM

Molecule: Ac-(SEQ ID NO: 39) [BCY2244]
- Ki [3, 7]: 1800 nM

Molecule: Ac-(SEQ ID NO: 51) [BCY2299]
- Ki [3, 9]: 3350 nM
- Ki [3, 8]: 3350 ± 98 nM

Molecule: A-(SEQ ID NO: 2)-A [BCY2265]
- Ki [3, 9]: 741 nM
- Ki [3, 8]: 822 ± 701 nM
- Kd ([2]; Table 1, human, read-out: hIL17-A Binding Kd): 336 nM

Molecule: Ac-(SEQ ID NO: 49) [BCY2294]
- Ki [3, 9]: 1020 nM
- Ki [3, 8]: 1030 ± 221 nM

Molecule: A-(SEQ ID NO: 3)-A [BCY2231]
- Ki [3, 8]: 1500 nM

Molecule: A-(SEQ ID NO: 49)-A-[Sar6]-K-[Fl] [BCY2316]
- Kd [1]: > 650 nM
- Kd [2, 5]: 372 nM

Molecule: Ac-(SEQ ID NO: 52) [BCY2302]
- Ki [3, 9]: 1880 nM
- Ki [3, 8]: 1920 ± 755 nM

Molecule: Ac-(SEQ ID NO: 35) [BCY2239]
- Ki [3, 9]: 32.3 nM
- Ki [3, 8]: 33.2 ± 7.45 nM

Molecule: Ac-(SEQ ID NO: 34) [BCY2238]
- Ki [3, 8]: 62.9 nM

Molecule: Ac-(SEQ ID NO: 42) [BCY2250]
- Ki [3, 7]: 113 nM

Molecule: Ac-(SEQ ID NO: 50) [BCY2295]
- Ki [3, 9]: 694 nM
- Ki [3, 8]: 694 ± 24.5 nM

Molecule: A-(SEQ ID NO: 4)-A [BCY2230]
- Ki [3, 8]: 633 nM

Molecule: A-(SEQ ID NO: 30)-A-[Sar6]-K-[Fl] [BCY2319]
- Kd [1]: 158 nM
- Kd [2, 5]: 657 nM

Molecule: Ac-(SEQ ID NO: 53) [BCY2304]
- Ki [3, 9]: 365 nM
- Ki [3, 8]: 366 ± 63.7 nM

Molecule: A-(SEQ ID NO: 14)-A-[Sar6]-K-[Fl] [BCY2315]
- Kd [1]: > 650 nM
- Kd [2, 10]: 5.6 nM
- Kd [2, 5]: 5.63 ± 0.73 nM

Molecule: [Mca]-G-[Sar5]-A-(SEQ ID NO: 1)-A [BCY2309]
- Kd [1]: > 1000 nM
- Kd [2, 10]: 334 nM
- Kd [2, 5]: 336 ± 71.5 nM

Molecule: Ac-(SEQ ID NO: 38) [BCY2243]
- Ki [3, 8]: 30.4 nM
- Ki [3, 6]: 39.8 nM
- Ki [3, 7]: 40.5 ± 10.6 nM

Molecule: Ac-(SEQ ID NO: 37) [BCY2241]
- Ki [3, 8]: 278 nM

Molecule: A-(SEQ ID NO: 32)-A [BCY2235]
- Ki [3, 9]: 130 nM
- Ki [3, 8]: 134 ± 38.3 nM

Molecule: Ac-(SEQ ID NO: 33) [BCY2237]
- Ki [3, 8]: 110 nM

Molecule: A-(SEQ ID NO: 8)-A [BCY2269]
- Ki [3, 9]: 78.4 nM
- Ki [3, 8]: 78.7 ± 13.2 nM

- Ki [4]: 633 nM
B1: BCY2230 (peptide)
peptide: ACDPDSLECWIFNQTCA
modifications: Ci, Cii and Ciii cyclised with TBMB
notes: Bicyclic peptide

- Ki [4]: 547 nM
B2: BCY2278 (peptide)
peptide: ACETDLDLCAFLNIPCA
modifications: Ci, Cii and Ciii cyclised with TBMB
notes: Bicyclic peptide

- Ki [4]: 240 nM
B3: BCY2305 (peptide)
peptide: ACDDSLYCFLTGDCA
modifications: Ci, Cii and Ciii cyclised with TBMB
notes: Bicyclic peptide

- Ki [4]: 118 nM
B4: BCY2267 (peptide)
peptide: ACDDDELYCFLTNQQCA
modifications: Ci, Cii and Ciii cyclised with TBMB
notes: Bicyclic peptide
